The text below walks through data of patent US20260201352.

The target in this data set is T1, nanopore protein CsgG-Eco-(Y51A/F56Q/R97W/R192D-StrepII (C)), P0AEA2.
T1 chain: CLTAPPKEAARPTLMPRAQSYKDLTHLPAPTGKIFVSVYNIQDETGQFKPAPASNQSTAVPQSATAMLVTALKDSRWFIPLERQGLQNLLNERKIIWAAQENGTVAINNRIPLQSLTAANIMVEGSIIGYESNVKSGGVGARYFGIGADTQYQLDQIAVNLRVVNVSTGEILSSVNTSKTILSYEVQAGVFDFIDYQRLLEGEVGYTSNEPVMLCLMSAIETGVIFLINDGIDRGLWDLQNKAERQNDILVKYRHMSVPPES

B1: BCH105-3 (protein)
chain: MKHDLSSATEEQRYIFTDFIKQAQLALKGDSDYEVFAIQGFAGSGKTWLSALIIDELLELGMKVAVTSPTHKAVRVSLNMLKNNGIDTNSPLMYPGTIHHFLNLKLDHGFADDGTADNCTTKAKLVVNKFNEALEYVDVLIVDEASMVSGELYDHALKTLGDRAKIILFIGDSYQLLPVDDEDSSIFLKDDIFHYKLTKVVRQAEDNIIIAKSQELIKAMDQKTYYPSVNDYFVNITEDTEGIKLLKSNVELFELYFSDFKDKMTGAYTNKVVNQFNEYIRYTLYQETKFIADKDELVFQETYTDSKGNIIVSNGEIIEVATAKLTTDIDKFKIWKIVSKKNELGEAVRFNVLDPSSYNEFNDLLDKYCADAKIAKGYDRSKAWKKYFKLKEKYAKVRYNFSSTIHKLQGSTYQNMYFDMRGLDYFYRMNRDNVLRLVYVGITRASDQVFILQD
In turn, B1 displayed a Speed (nt/s) of 245 nt/s.
